Values of other authors, collected in patent US20040097534A1, “Composition for the protection and regeneration of nerve cells containing berberine derivatives” (EUGENBIO INC., priority 2001, published 2004).

Details: rat, in vivo; cited from earlier work

For MK-801, the elimination half-life is listed as 1.9 h.
